The values below are quoted from earlier work in patent US9260731B2 (RELIANCE INDUSTRIES LIMITED, priority 2012, dated 2016).

The subject of this series is biological systems. The following applies: Jones and Wood, 1986; cited from earlier work.

In the case of n-butanol, the “butanol concentration highly toxic to biological systems” value is 2%.
